One compound from PubChem BioAssay AID492993 (Johns Hopkins Ion Channel Center, 2010) can be followed below.

Amino acid sequences for entries named in this document (tags omitted). A change or cut given only in a name is not applied to a line headed by its entry.
UniProt P35561: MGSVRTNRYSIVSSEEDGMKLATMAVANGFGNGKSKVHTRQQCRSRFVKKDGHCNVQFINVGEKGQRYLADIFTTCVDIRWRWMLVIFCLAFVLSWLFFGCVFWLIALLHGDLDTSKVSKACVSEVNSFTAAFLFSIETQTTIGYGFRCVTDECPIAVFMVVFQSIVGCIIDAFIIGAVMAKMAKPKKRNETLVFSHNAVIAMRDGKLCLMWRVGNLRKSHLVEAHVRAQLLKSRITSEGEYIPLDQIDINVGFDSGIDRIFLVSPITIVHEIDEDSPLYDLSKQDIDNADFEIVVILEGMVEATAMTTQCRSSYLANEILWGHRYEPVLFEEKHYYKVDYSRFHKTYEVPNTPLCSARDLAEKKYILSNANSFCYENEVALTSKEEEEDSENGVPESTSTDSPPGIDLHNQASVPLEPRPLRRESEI

SMILES strings stand for the structures. The list shows a part of the results, in another mix than the full data. Calls of active or inactive are those of the source.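 How the source made its calls: active means thallium signal drop more than 5 SD beyond the mean of the no-compound control wells, seen in both duplicate plates; inactive means the rest.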

This test has as its target Inward rectifier potassium channel 2 (Mus musculus) (UniProt P35561). The test is described as follows: off-target Kir2.1 potassium flux block – cell-based, HEK293, thallium flux, selectivity assay for KCNK9 modulator project, confirmation (AID 492993).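 Further: signal is fluorescence rise after thallium addition divided by baseline fluorescence; plate controls were assay buffer only for no effect and full block by chlorpromazine control for full effect.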 To be noted: Kir2.1 cells, FluxOR thallium flux fluorescence; at 10 µM; active compounds read high.
The term inhibition denotes the share of the control response that was lost under treatment. Regarding `O=P(Nc1nccs1)(c1ccccc1)c1nc2ccccc2s1` (stereo unspecified), the inhibition is inactive: 0%.
